The entries are a selection whose mix differs from that of the whole data set. Activity calls are given as the source filed them. The call rests on the fitted dose curve; in most records, active means well fitted activation curve with a large enough effect; inconclusive means small, poorly fitted or top-dose-only effect; inactive means flat fitted curve, though single readings scatter.
assay: Quantitative High-Throughput Screen for Regulators of Epigenetic Control; settings: murine LDR cells, GFP reporter derepression, 30 h; at 53.9 µM (top of the series) unless noted; further: % of control where 0% means no effect; nearly all actives have a fitted effect of over 60% in size
Source text: NIH Molecular Libraries Screening Centers Network [MLPCN] NIH Chemical Genomics Center [NCGC] MLSCN Grant: 1 X01 MH079860-01 Assay Provider: Elisabeth D. Martinez, University of Texas SW Medical Center NCGC Assay Overview: The Locus Derepression (LDR) assay detects the derepression or induction of a GFP reporter that is stably integrated in a genomic region of murine cells that is presumably silenced. Transcription of the GFP reporter is controlled by a CMV promoter, which normally is constitutively active. However, this cell line, termed LDR, was selected for lack of constitutive production of GFP. GFP production can be induced by incubating the cells with histone deacetylase or DNA methyltransferase inhibitors (Martinez et al., 2006). Compounds that derepress or induce this reporter locus are identified by enumerating GFP positive cells using a laser-scanning microplate cytometer (Auld et al., 2006). This assay was screened against the MLSMR earlier (AID 597; (Johnson et al., 2008) and has been rescreened here against the expanded collection.
NCGC Assay Protocol Summary: Three hundred LDR cells in 5 uL per well were dispensed into black, clear-bottom 1536-well plates. Twenty-three nL compound was transferred to the assay plate and cells were incubated 30 hours at 37 C. Medium was removed, cells were washed two times with PBS, and GFP-positive cells were enumerated as fluorescent objects between the sizes of 20 to 120 um width and depth using an Acumen Explorer. References Auld, DS, Johnson, RL, Zhang, YQ, Veith, H, Jadhav, A, Yasgar, A, Simeonov, A, Zheng, W, Martinez, ED, Westwick, JK, Austin, CP, Inglese, J (2006). Fluorescent protein-based cellular assays analyzed by laser-scanning microplate cytometry in 1536-well plate format. Methods Enzymol 414: 566-89. Johnson, RL, Huang, W, Jadhav, A, Austin, CP, Inglese, J, Martinez, ED (2008). A quantitative high-throughput screen identifies potential epigenetic modulators of gene expression. Anal Biochem 375: 237-48. Martinez, ED, Dull, AB, Beutler, JA, Hager, GL (2006). High-content fluorescence-based screening for epigenetic modulators. Methods Enzymol 414: 21-36.

SMILES	GFP activation
O=[N+]([O-])c1cc([N+](=O)[O-])c(-n2nnc3ccccc32)c([N+](=O)[O-])c1	inactive: 3.39%
Cc1nc2ccc3ccccc3c2s1.O=[N+]([O-])c1cc([N+](=O)[O-])c(O)c([N+](=O)[O-])c1	inactive: 2.78%
O=[N+]([O-])c1cc([N+](=O)[O-])c(Nc2nnnn2CCO)c([N+](=O)[O-])c1	inactive: 1.08%
CP(=O)(Nc1ccc(SC(F)(F)F)cc1)Oc1ccccc1 (stereo not drawn)	inactive: 3.88%
CCCOc1ccc(NP(C)(=O)Oc2ccc(Cl)cc2)cc1 (stereo not drawn)	inactive: -0.111%
CN1CCCCC1COC(=O)C1(O)c2ccccc2CCc2ccccc21 (stereo not drawn)	inactive: -0.917%
COc1ccccc1OP(C)(=O)Nc1c(C)cccc1C (stereo not drawn)	inactive: -1.06%
CC1=NCCc2c1[nH]c1ccccc21.O=[N+]([O-])c1cc([N+](=O)[O-])c(O)c([N+](=O)[O-])c1	inactive: 0%
O=[N+]([O-])OCC(CO[N+](=O)[O-])(CO[N+](=O)[O-])CO[N+](=O)[O-]	inactive: -4.62%
CCOC(=O)c1ccc(NP(C)(=O)Oc2cc(C)cc(C)c2)cc1 (stereo not drawn)	inactive: 0%
Cc1cc(C)cc(OP(C)(=O)Nc2ccc(C)cc2C)c1 (stereo not drawn)	inactive: -1%
COc1ccccc1OP(C)(=O)Nc1cccc(Br)c1 (stereo not drawn)	inactive: -3.85%
Cc1ccc(C)c(NP(C)(=O)Oc2ccccc2)c1 (stereo not drawn)	inactive: -1.14%
CP(=O)(Nc1cccc(Br)c1)Oc1ccccc1 (stereo not drawn)	inactive: -0.494%
Cc1cc(C)cc(OP(C)(=O)Nc2ccccn2)c1 (stereo not drawn)	inactive: 0%
CCN(CC)CCCOC(=O)C(O)(c1ccccc1)c1ccccc1	inactive: -0.189%
O=[N+]([O-])c1ccc2c(c1)C=Nc1ccccc1O2	inactive: 2.94%
Cc1cccc(C)c1OP(C)(N)=O (stereo not drawn)	inactive: -2.56%
Cc1cc(C)cc(OP(C)(N)=O)c1 (stereo not drawn)	inactive: 0%
COc1ccccc1OP(C)(=O)Nc1cc(Cl)ccc1C (stereo not drawn)	inactive: 1.7%
COc1ccc(OP(C)(=O)Nc2cccc(F)c2)cc1 (stereo not drawn)	inactive: -4.55%

SMILES	GFP activation
COc1ccccc1OP(C)(=O)Nc1ccc(C)cc1 (stereo not drawn)	inactive: -2.64%
Cc1ccc(NP(C)(=O)Oc2ccccc2)c(C)c1 (stereo not drawn)	inactive: 1.9%
CCOC(=O)c1ccc(NP(C)(=O)Oc2ccccc2)cc1 (stereo not drawn)	inactive: -5.11%
CP(=O)(Nc1ccccc1Br)Oc1ccccc1 (stereo not drawn)	inactive: -3.24%
COc1ccccc1OP(C)(=O)Nc1ccccc1 (stereo not drawn)	inactive: 0%
CP(=S)(Nn1cnnc1)Oc1ccccc1 (stereo not drawn)	inactive: -1.08%
CCc1ccc(OP(C)(=O)N2CCN(c3ccc([N+](=O)[O-])cc3)CC2)cc1 (stereo not drawn)	inactive: 0.0549%
CP(=O)(NC(=O)Nc1ccccc1)Oc1ccccc1 (stereo not drawn)	inactive: -1.22%
Cc1cc(C)cc(OP(C)(=O)Nc2ccc(SC(F)(F)F)cc2)c1 (stereo not drawn)	inactive: -0.99%
CP(=O)(Nc1ccc(SC(F)(F)F)cc1)Oc1ccc(Cl)cc1 (stereo not drawn)	inactive: -0.417%
Cc1cccc(C)c1OP(C)(=O)Nc1ccc(SC(F)(F)F)cc1 (stereo not drawn)	inactive: -0.0192%
CP(=O)(Oc1ccccc1)OC(c1ccccc1)C(F)(F)F (stereo not drawn)	inactive: -0.146%
CP(=O)(Nc1ccccn1)Oc1ccc(Cl)cc1 (stereo not drawn)	inactive: -2.22%
CCOC(=O)c1ccc(NP(C)(=O)Oc2ccc(OC)cc2)cc1 (stereo not drawn)	inactive: -1.04%
CCOP(C)(=S)SCC(=O)NC(C)C(=O)O (stereo not drawn)	inactive: -5.36%
COc1ccccc1OP(C)(=O)Nc1c(C)n(C)n(-c2ccccc2)c1=O (stereo not drawn)	inactive: 0.0168%
O=C(OCCCN1CCCC1)C(O)(c1ccccc1)C1CCCCC1 (stereo not drawn)	inactive: -1.08%
OCCSCCO	inactive: 5.1%
CP(=O)(Oc1ccccc1)N1CCOC1=O (stereo not drawn)	inactive: 4.42%
CCc1ccc(OP(C)(=O)Nc2cccnc2)cc1 (stereo not drawn)	inactive: -1.5%
CCN(CC)CC(O)COC(=O)C(O)(c1ccccc1)C1CCCCC1 (stereo not drawn)	inactive: -1.08%

SMILES	GFP activation
COc1ccc(OP(C)(=O)Nc2ccc(Br)cc2)cc1 (stereo not drawn)	inactive: 0%
N#[O+].[C-]#N.[C-]#N.[C-]#N.[C-]#N.[C-]#N.[Fe+2].[Na+].[Na+]	inactive: -1.22%
CN(C)C(=O)c1c([N+](=O)[O-])cc([N+](=O)[O-])cc1[N+](=O)[O-]	inactive: -1.05%
CC(C)(C)c1ccc(OP(C)(=O)O)cc1	inactive: 0.781%
COc1ccccc1OP(C)(=O)Nc1ccccc1Br (stereo not drawn)	inactive: -0.381%
CP(=O)(Nc1ccc(Cl)cc1)Oc1ccc(F)cc1 (stereo not drawn)	inactive: 3.77%
CCOC(=O)c1ccc(NP(C)(=O)Oc2ccc(Cl)cc2)cc1 (stereo not drawn)	inactive: -1.59%
CP(=O)(OC12CC3CC(CC(C3)C1)C2)OC12CC3CC(CC(C3)C1)C2	inactive: 4.17%
C/C1=C2N=C(/C=C3N=C(/C(C)=C4\[N-][C@@](C)([C@H]5N=C1[C@@](C)(CCC(=O)NC[C@H](C)OP(=O)([O-])O[C@@H]1[C@H](O)[C@H](n6cnc7cc(C)c(C)cc76)O[C@@H]1CO)[C@@H]5CC(N)=O)[C@](C)(CC(N)=O)[C@H]4CCC(N)=O)[C@@](C)(CC(N)=O)[C@@H]\3CCC(N)=O)C(C)(C)[C@@H]/2CCC(N)=O.[C-]#N.[Co+3]	inactive: 2.74% [at 16.9 µM]
COc1ccccc1OP(C)(=O)Nc1ccc(C)c(C)c1 (stereo not drawn)	inactive: -2.94%
COc1ccc(OP(C)(=O)Nc2ccccc2Br)cc1 (stereo not drawn)	inactive: -1.04%
Cc1cc(C)cc(OP(C)(=O)Nc2cccc(C(F)(F)F)c2)c1 (stereo not drawn)	inactive: 5.14%
CP(=O)(OCCOc1ccccc1)OCCOc1ccccc1	inactive: -1.63%
CP(=O)(Nc1ccc(Cl)cc1Cl)Oc1ccccc1 (stereo not drawn)	inactive: -0.292%
Cc1nc2ccc3ccccc3c2o1.O=[N+]([O-])c1cc([N+](=O)[O-])c(O)c([N+](=O)[O-])c1	inactive: -1.81%
COc1ccc(OP(C)(=O)Nc2ccccn2)cc1 (stereo not drawn)	inactive: -3.87%
CN(C)CCOC(=O)C(O)(c1ccccc1)C1CCCC1 (stereo not drawn)	inactive: -1.08%
COc1ccccc1OP(C)(=O)Nc1ccc(Br)cc1 (stereo not drawn)	inactive: 2.13%
CP(=O)(Nc1ccccn1)Oc1ccccc1 (stereo not drawn)	inactive: 1.78%
COc1ccccc1OP(C)(=O)Nc1ccc(C)cc1C (stereo not drawn)	inactive: -2.28%
CCc1ccc(OP(C)(=O)O)cc1	inactive: -1.09%

SMILES	GFP activation
O=[N+]([O-])c1cc([N+](=O)[O-])c(Nc2ccccn2)c([N+](=O)[O-])c1	inactive: -7.29%
Cc1c(NP(C)(=O)Oc2ccc(C(C)C)cc2)c(=O)n(-c2ccccc2)n1C (stereo not drawn)	inactive: 1.06%
CP(=O)(Nc1ccccc1F)Oc1ccccc1 (stereo not drawn)	inactive: 1.81%
CC(C)c1ccc(OP(C)(=O)Nc2ccc(SC(F)(F)F)cc2)cc1 (stereo not drawn)	inactive: -2.99%
O=C(OCCN1CCN(CCOCc2ccccc2)CC1)C(O)(c1ccccc1)c1ccccc1	inactive: -1.28%
CCOC(=O)c1ccc(NP(C)(=O)Oc2ccc(F)cc2)cc1 (stereo not drawn)	inactive: -4.76%
COc1ccc(OP(C)(=O)Nc2ccc(SC(F)(F)F)cc2)cc1 (stereo not drawn)	inactive: -3.17%
CP(=O)(Nc1ccccc1)Oc1ccc(F)cc1 (stereo not drawn)	inactive: -0.262%
CCCCCOc1ccc(NP(C)(=O)Oc2ccc(Cl)cc2Cl)cc1 (stereo not drawn)	inactive: 8.29%
CCN(CC)CCCOC(=O)C(O)(c1ccccc1)C1CCCCC1 (stereo not drawn)	inactive: 0%
CN(C)CCOC(=O)C(O)(c1ccccc1)C1CCCCC1 (stereo not drawn)	inactive: 3.53%
COc1ccc(NP(C)(=O)Oc2ccccc2OC)cc1 (stereo not drawn)	inactive: 1.28%
COc1ccc(OP(C)(=O)Nc2cccc(Br)c2)cc1 (stereo not drawn)	inactive: -1.79%
O=[N+]([O-])c1ccc(OP2(=O)COCCO2)cc1 (stereo not drawn)	inactive: 0.0625%
Cc1cc(-c2cccc3ccccc23)c(C)cn1.O=[N+]([O-])c1cc([N+](=O)[O-])c(O)c([N+](=O)[O-])c1	inactive: 9.64%
CCOP(C)(=S)SCC(=O)NC(C)(CC)C(=O)O (stereo not drawn)	inactive: 4.52%
CP(=O)(Nc1ccc(SC(F)(F)F)cc1)Oc1ccc(F)cc1 (stereo not drawn)	inactive: -2.65%
CCN(CCCl)Cc1ccccc1C	inactive: 1.06%
Cc1ccccc1NP(C)(=O)Nc1ccccc1C	inactive: 0%
CP(=O)(Nc1ccc2c(c1)OCCO2)Oc1ccccc1 (stereo not drawn)	inactive: 0.833%
